In patent US20200148803A1, “POLYMERIZABLE MULTIFUNCTIONAL ANTIMICROBIAL QUATERNARY AMMONIUM MONOMERS, METHODS OF SYNTHESIS, AND USES THEREOF” (ADA Foundation, priority 2018, published 2020):

Tests used:
[1] = Sessile drop water contact angle (CA) on resin pellets; assay type: physicochemical
Experimental: (§1) Experimental resin (UPE) was formulated from the commercially available monomers urethane dimethacrylate (UDMA, 50.91% w/w), polyethylene glycol extended urethane dimethacrylate (PEG-U, 18.18% w/w), and ethyl 2-(hydroxymethyl)acrylate (EHMA, 30.91% w/w). A conventional visible light initiator system comprised of camphorquinone (0.2% w/w) and ethyl-4-N,N-dimethylamino benzoate (4EDMAB, 0.8% w/w) was utilized. […] Copolymer specimens (beams) were prepared by depositing UPE (UPE resin control) and AM-UPE resins into glass molds (2 mm×2 mm×25 mm) and photopolymerizing them with a dental curing light (Triad 2000, Dentsply, Charlotte, N.C., USA) for 2 minutes from two sides. Copolymer specimens (pellets) were prepared by depositing UPE and AM-UPE resins into a stainless-steel mold (1 mm×16 mm), sandwiched between two sheets of Mylar film and two glass slides and photopolymerized in the same manner as the beam samples. Degree of vinyl conversion (DVC) of UPE and AM-UPE resins was determined utilizing beam samples by collecting the near infra-red (NIR) spectra (Nexus 670, ThermoFisher, Madison, Wis., USA) before and 24 h after polymerization and calculating the reduction in absorption band at 6165 cm^−1 corresponding to the vinyl (C═C—H) overtone signal. […] The DVC was calculated as: […]
where Area(polymer) and Area(monomer) correspond to the areas under 6165 cm^−1 peaks after and before the polymerization, respectively. After DVC analysis, flexural strength (FS) and elastic modulus (E) of beam specimen were determined employing the Universal Testing Machine (Instron 5500R, Instron Corp., Canton, Mass., USA). […] The FS and E of the specimens (three replicates/experimental group) was calculated as instructed in the ISO4049:2009 document. Changes in hydrophilicity/hydrophobicity of UPE resins due to the introduction of AM monomers were assessed on pellet specimen by sessile drop contact angle (CA) measurements (drop shape analyzer DSA100, Krüss GmbH, Hamburg, Germany). […] The CA water values were calculated employing the Krüss Advance software. […]

[2] = Degree of vinyl conversion (DVC) by near infra-red spectra of copolymer beams; assay type: physicochemical; settings: 10 mass percent in UPE resin
Experimental: as §1, with “Copolymer specimens (pellets) were prepared by depositing UPE and AM-UPE resins into a stainless-steel mold (1 mm×16 mm), sandwiched between two sheets of Mylar film and two glass slides and photopolymerized in the same manner as the beam samples.” left out
where Area(polymer) and Area(monomer) correspond to the areas under 6165 cm^−1 peaks after and before the polymerization, respectively. After DVC analysis, flexural strength (FS) and elastic modulus (E) of beam specimen were determined employing the Universal Testing Machine (Instron 5500R, Instron Corp., Canton, Mass., USA). […]

2-(methacryloyloxy)-N,N,N-trimethylethan-1-aminium dodecyl sulfate [AMmis1]
surface properties of copolymer pellet ([1]; 10 mass percent in UPE resin): amphiphilic surface properties
CA, more hydrophilic side of the copolymer pellet ([1]; UPE with AMmis1 at 10 mass percent): 37.1±11.4 °
CA, other side of the copolymer pellet ([1]; UPE with AMmis1 at 10 mass percent, side retaining hydrophobic-hydrophilic balance): 64.8±2.4 °
DVC compared to UPE resin control [2]: maintained the DVC of copolymer at the same level as the UPE resin control
